Results as given in US20250186563A1, “UNIT DOSE FORMULATION OF ANTIDOTES FOR FACTOR XA INHIBITORS AND METHODS OF USING THE SAME” (Alexion Pharmaceuticals, Inc., priority 2009, published 2025).

B1: pd-Antidote: des-Gla anhydro fXa derivative having the amino acid residues of SEQ ID NO. 10 (protein)
chain: KDGDQCETSPCQNQGKCKDGLGEYTCTCLEGFEGKNCELFTRKLCSLDNGDCDQFCHEEQNSVVCSCARGYTLADNGKACIPTGPYPCGKQTLERIVGGQECKDGECPWQALLINEENEGFCGGTILSEFYILTAAHCLYQAKRFKVRVGDRNTEQEEGGEAVHEVEVVIKHNRFTKETYDFDIAVLRLKTPITFRMNVAPACLPERDWAESTLMTQKTGIVSGFGRTHEKGRQSTRLKMLEVPYVDRNSCKLSSSFIITQNMFCAGYDTKQEDACQGDAGGPHVTRFKDTYFVTGIVSWGEGCARKGKYGIYTKVTAFLKWIDRSMKTRGLPKAKSHAPEVITSSPLK
modifications: dehydroalanine at active-site serine; MOD_RES 280 Dehydroalanine
B2: anhydro-fXa: Gla-domain containing fXa in which dehydroalanine replaces the active-site serine (SEQ ID NO: 20) (protein)
chain: ANSFLEEMKKGHLERECMEETCSYEEAREVFEDSDKTNEFWNKYKDGDQCETSPCQNQGKCKDGLGEYTCTCLEGFEGKNCELFTRKLCSLDNGDCDQFCHEEQNSVVCSCARGYTLADNGKACIPTGPYPCGKQTLERIVGGQECKDGECPWQALLINEENEGFCGGTILSEFYILTAAHCLYQAKRFKVRVGDRNTEQEEGGEAVHEVEVVIKHNRFTKETYDFDIAVLRLKTPITFRMNVAPACLPERDWAESTLMTQKTGIVSGFGRTHEKGRQSTRLKMLEVPYVDRNSCKLSSSFIITQNMFCAGYDTKQEDACQGDAGGPHVTRFKDTYFVTGIVSWGEGCARKGKYGIYTKVTAFLKWIDRSMKTRGLPKAKSHAPEVITSSPLK
modifications: dehydroalanine replaces active-site serine; MOD_RES 324 Dehydroalanine

Legend:
thrombin = target: T1, thrombin (Homo sapiens, UniProt P00734); assay: Thrombin chromogenic assay (S2288) with argatroban; format: biochemical; conditions: antidote up to 538 nM; thrombin 5 nM; argatroban 50 nM
T1 construct: purified human thrombin (5 nM), argatroban (50 nM)
Procedure: The effect of the antidote des-Gla anhydro-fXa (SEQ ID NO:10) on thrombin activity toward a chromogenic substrate S2288 (200 M) was measured similarly as before with or without Argatroban, a specific small molecule IIa inhibitor.
After incubation at room temperature for 20 min, an amidolytic substrate 52288 (200 uM) was added to the mixture and the rate of p-nitroanilide substrate cleavage was monitored by absorbance at 405 nm.

[1] = system: clot formation in human platelet poor plasma; assay: Clotting prolongation assay, 96-well plate format (OD405 turbidity); format: biochemical; conditions: 563 nM antidote; enoxaparin 0.3125-1.25 U/mL; aPTT reagent
Procedure: Two clotting assay formats were used to test the effects of factor Xa inhibitors and the antidote on clotting prolongation. In the first format, a 96-well plate was used to measure multiple samples at the same time. In the second assay format, aPTT was measured with a conventional coagulation instrument (MLA Electra 800 automatic coagulation timer).
In the 96-well plate format method, human platelet poor plasma or platelet rich plasma was prepared similarly as procedures in Example 2. 75-100 μL plasma was recalcified with CaCl2), incubated at 37° C. for 3 minutes and clot formation was initiated by adding tissue factor (Innovin, Dade Behring) or an aPTT reagent (Actin FS, Dade Behring). Change of OD405 was monitored continuously by a plate reader (Molecular Devices). Clotting time was defined as the time (second) when the half maximal value of absorbance (OD405 nm) change was reached. Factor Xa inhibitor and antidote, when present, were pre-incubated with plasma at room temperature for 20 minutes before initiation of the reaction.
In FIG. 18, the effect of r-Antidote to reverse the inhibitory effect of LMWH enoxaparin (Sanofi-Aventis) was tested by turbidity changes in human plasma. Enoxaparin (0-1.25 U/mL) was incubated at 22° C. for 20 min with or without 508 nM r-Antidote. Turbidity changes were measured according to procedures described in Example 3. 508 nM r-Antidote substantially corrected (>75%) the inhibitory effect of 0.3125-1.25 U/mL Enoxaparin.
A turbidity assay was used to test the effect of fXa inhibitors and r-Antidote on prolongation of clotting times. In this format, a 96-well plate was used to measure multiple samples at the same time. Human platelet poor plasma was prepared as in Example 2. […] Change of OD405 was monitored continuously by a plate reader (Molecular Devices). Clotting time was defined as the time (seconds) for reaching the half maximal value for change in absorbance (OD405 nm). […]

thrombin generation = assay: Thrombin generation assay in platelet poor plasma; format: biochemical, human; conditions: PPP
Procedure: PRP and PPP were prepared by spinning the anticoagulated blood at ˜100× gravity or 1000× gravity for 20 minutes, respectively, at room temperature. 75-100 microliter (uL) plasma was mixed with CaCl2) and Z-Gly-Gly-Arg-aminomethylcoumarin (Z-GGR-AMC, a thrombin fluorogenic substrate). Tissue factor (Innovin, Dade Behring) was added to initiate the generation of thrombin. For a typical experiment, the reaction mixture contained 15 millimolar (mM) Ca^2+, 100 micromolar (M) Z-GGR-AMC, and 0.1 nanomolar (nM) tissue factor (TF) (Innovin). Thrombin formation was monitored continuously at 37° C. by a fluorometric plate reader (Molecular Devices) measuring the relative fluorescence units (RFU). Inhibitor and antidote, when present, were pre-incubated with plasma for 20 minutes at room temperature before initiation of thrombin generation.

[2] = system: aPTT of pooled human plasma; assay: aPTT human plasma clotting assay (MLA Electra 800 coagulation timer); format: biochemical
[3] = system: betrixaban anticoagulation (whole blood INR); assay: In vivo mouse model, PK-PD of betrixaban with antidote; set-up: species or system C57Bl/6 mice
Procedure: 15 mg/kg was used for antidote treated group. A single intravenous (IV) injection of antidote (300 ug/200 μL) or vehicle (normal saline, 200 μL) was administered 5 minutes prior to the 1.5 hr. time point.
Blood samples (0.5 mL) were obtained in 50 μL trisodium citrate. Whole blood INR was measured using Hemochron Jr. cartridges (International Technidyne Corporation) per the manufacture's instructions.
15 mg/kg was used for antidote (300 μg/200 μL) treated group.
Vehicle (control_1) or r-Antidote (1 injection) was administered 5 min prior to the 1 hr. time point. […] Mouse blood samples were taken at 2 hr. for vehicle (control_2) and r-Antidote (2 injections) treated mice.

fXa = target: T2, fXa (Homo sapiens, UniProt P00742); assay: fXa chromogenic activity assay: inhibition by fXa inhibitors and reversal by antidote; format: biochemical
T2 construct: purified active human plasma derived fXa (3 nM); from tissue; host or cells: human plasma

[4] = pd-Antidote treated mice, […] after 15 mg/kg betrixaban PO

Molecule | effect on thrombin activity and its inhibition by argatroban (thrombin) | effect on anticoagulant activity of enoxaparin [1] | reversal of anticoagulant activity of betrixaban (thrombin generation) (thrombin generation; 680 nM antidote, varying betrixaban) | antidote concentration for return of aPTT to near normal level ([2]; 400 nM betrixaban) | EC50 ([2]; 400 nM betrixaban, read-out: EC50 of the antidote (aPTT reversal)) [nM] | effect on aPTT of control plasma ([2]; 2576 nM antidote alone) | reduction of functional betrixaban / correction of whole blood INR ([3]; mice, betrixaban 15 mg/kg PO, single IV injection of antidote (300 ug)) [%] | % Correction, Mean [3, 4] [%] | Expected INR, Mean [3, 4] | Measured INR, Mean ([3]; pd-Antidote treated mice, […] after 15 mg/kg betrixaban PO, 5 min after antidote injection) | inhibition of plasma thrombin generation (thrombin generation; about 115 nM anhydro-fXa) | procoagulant (fXa chromogenic) activity compared with active fXa (fXa; anhydro-fXa alone) | reversal of fXa inhibition by betrixaban (fXa; purified system with active fXa and betrixaban)
B1 | does not detectably affect | significantly neutralized | complete reversion; also recorded: substantially complete restoration | higher than 1610 nM | ~656 | no effect | > 50 | 77.2 | 4.0 | 1.9 |  |  | 
B2 |  |  |  |  |  |  |  |  |  |  | almost completely inhibited | negligible | reverses

“Also recorded” adds a separate entry of the source.
